# Source: PubChem
# Rows were chosen to be rich in hits. Some 1.2% of all compounds tested hit in one or more screens of this group.
# Yeast UUG start: alters start codon recognition fidelity in yeast | S. cerevisiae UUG-firefly luciferase reporter, luminescence/redox ratio | activity score, % at 18.7 µM | 350,000 compounds, 0.13% hits | AID 602363;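 active = replicate mean at a twofold rise or more, about +100% in these data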;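 note: firefly luciferase made from a UUG start codon reports start codon fidelity; reporter light over untreated wells divided by growth signal over untreated wells; some hits fall short of that in this replicate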
# Pemphigus Ab inh: human desmoglein-3 autoantibody binding inhibition | DSG3-coupled beads, scFv-anti-DSG3-GFP binding, flow cytometry; stronger effect = lower value | binding (percent of control), % at 10 µM | hit rate 0.48% among 310,000;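 active means binding more than 3 SD below its plate's average and above zero; inconclusive means below that plate limit but binding exactly zero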;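 further: hits lower antibody fragment binding to DSG3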
# Rce1 inh: blocks yeast Ras-converting enzyme | Q03530 | yeast membranes, quenched prenylated peptide cleavage fluorescence | calls only | hit rate 0.27% among 290,000 | AID 2563;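 active means fall in fluorescence gain of 50% or more versus controls, with final raw signal at or below 3038400; inconclusive means same 50% fall but final raw signal above 3038400; inactive means fall in fluorescence gain under 50%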;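 further: plate controls were neutral control wells for no effect and wells lacking membranes for full effect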
# Tb MetRS inh: blocks T. brucei methionyl-tRNA synthetase activity; purified T. brucei MetRS, ATP depletion, Kinase-Glo luminescence; inhibition, % at 11.9 µM; hit rate 0.4% among 360,000;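 active means inhibition above a per-plate cutoff of the control wells' mean inhibition plus 3 SD, cut at about 5.5% in these data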;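 further: 0% = DMSO wells median and 100% = median of wells with control inhibitor compound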
#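 Dosing: 11.9 µM single point; system: parasite MetRS enzyme; technique: luminescence of leftover ATP; times: 15 min enzyme-compound preincubation, 2 h reaction, 10 min detection, 25 °C; replicates: each compound tested once; read-out basis: percent inhibition relative to median high and low control wells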
# Arrestin-AP2 inh: blocks beta-arrestin peptide binding to AP2 adaptin; FITC-arrestin peptide / GST-AP2 beads, flow cytometry; AP2 beta2 appendage carries R879A mutation; hit rate 0.31% among 340,000; inhibition, % at 10 µM; AID 504490;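 active means inhibition above a set limit, near 3 SD of compounds lacking own fluorescence, cut at about 54% in these data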;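 further: plate controls were DMSO wells for no effect and 5 µM unlabelled arrestin peptide for full effect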
#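 System: GST-AP2 R879A glutathione beads. Medium: PBS with 0.05% Tween 20 and 0.1% BSA. Also added: FITC-arrestin peptide, 50 nM. Incubation: 12 min plus 1 h, RT. Measured by: high-throughput flow cytometry of beads, ex 488, em 535 nm. Evaluation: percent drop in bead-associated FITC signal.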
# Tb MetRS conf: Trypanosoma brucei MetRS inhibition confirmed. shares compounds with Tb MetRS inh. T. brucei MetRS enzyme, luminescence (ATP depletion). inhibition, % at 11.9 µM. hit rate 93% among 1,400. AID 624412; in the data active means inhibition above about 7%
# Jurkat cytotox: kills Jurkat cells in T. brucei MetRS counterscreen; Jurkat cells viability, ATP luminescence; hit rate 12% among 1,400; AID 624413; inhibition, % at 8.3 µM; shares compounds with Tb MetRS inh; in the data active means inhibition above about 15%;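 further: 0% = vehicle and 100% = reference inhibitor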
# Tb MetRS inh FP: orthogonal test for Trypanosoma brucei MetRS inhibitors; shares compounds with Tb MetRS inh; purified T. brucei MetRS, fluorescence polarization; inhibition, % at 11.9 µM; hit rate 44% among 1,400; in the data active means inhibition above about 17%;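 further: 0% = vehicle wells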
# Numbers without * were called inactive; i = inactive; u = inconclusive; x = no result.
SMILES,Yeast UUG start,Pemphigus Ab inh,Rce1 inh,Tb MetRS inh,Arrestin-AP2 inh,Tb MetRS conf,Jurkat cytotox,Tb MetRS inh FP
COc1ccc(CNC(=O)CSc2nnc3c(n2)[nH]c2ccc(C)cc23)cc1,8.8,x,i,33.5*,25.9,82.2*,0.3,55.1*
COc1ccc2[nH]c3nc(SCC(=O)Nc4ccc5c(c4)OCO5)nnc3c2c1,-5.5,92.2,i,56.5*,-4.6,87.6*,9.9,73.3*
O=C(CSc1nnc2c(n1)[nH]c1ccccc12)NCc1ccco1,x,106.1,i,8.3*,-13.7,13.7*,8.8,7.2
CNC(=O)COC(=O)c1ccc(Cl)c(S(N)(=O)=O)c1,x,122.5,i,6.4*,2.1,2.9,-5.4,3.0
COc1ccccc1NC(=O)N[C@@H]1C=C[C@@H](CC(=O)N2CCC(Cc3ccccc3)CC2)O[C@H]1CO,41.7,x,x,x,x,x,x,x
Cc1cccc(NC(=O)NNC(=O)c2cc(-c3ccccc3Cl)nc3ccccc23)c1,5.4,95.9,i,-1.0,24.3,x,x,x
O=C(NNC(=O)c1cc(-c2ccc(Cl)c(Cl)c2)nc2ccccc12)Nc1ccccc1,x,u,i,45.1*,3.0,93.9*,2.2,80.9*
O=S(=O)(c1ccc2nc(COc3ccc(Cl)cc3Cl)[nH]c2c1)N1CCOCC1,0.5,79.0,i,12.1*,15.0,21.4*,9.2,14.5
O=S(=O)(c1ccc2nc(SCc3ccc(Cl)cc3)[nH]c2c1)N1CCOCC1,-3.8,101.9,i,12.4*,-5.3,17.9*,0.0,18.6*
Cc1noc(C)c1S(=O)(=O)Nc1ccc2c(c1)C(=O)N([C@@H](C)CO)C[C@@H](C)[C@H](CN(C)S(C)(=O)=O)OCCCC[C@@H](C)O2,5.7,x,x,x,x,x,x,x
COCCNC(=O)C[C@@H]1C[C@@H]2c3cc(NC(=O)c4ccc5c(c4)OCO5)ccc3O[C@@H]2[C@H](CO)O1,-0.2,x,x,x,x,x,x,x
C[C@@H]1CN([C@@H](C)CO)C(=O)c2cccc(NS(=O)(=O)c3cccs3)c2O[C@H]1CN(C)S(=O)(=O)c1ccccc1,-3.3,x,x,x,x,x,x,x
Brc1ccc(-n2c(SCc3nc4ccccc4[nH]3)nnc2-c2ccncc2)cc1,x,93.5,i,27.2*,-3.3,41.9*,1.0,16.1
O=C(CCNC(=O)c1ccc(Br)cc1)OCc1ccccc1Cl,-13.6,125.0,i,7.0*,-23.3,34.3*,-3.6,19.4*
Cn1c(SCc2ccccc2)nnc1-c1c[nH]c2ccccc12,-10.1,108.0,i,8.3*,5.9,18.9*,4.6,6.1
COc1ccccc1-c1nnc(SCC(=O)NC2CC2)n1C,-14.4,90.4,x,-0.4,-11.6,x,x,x
COc1ccccc1-c1nnc(SC(C(=O)c2c[nH]c3ccccc23)c2ccccc2)n1C (stereo not given),x,93.4,i,13.4*,-4.3,35.3*,1.6,11.5
COc1cccc(-c2ccc3c(c2)[C@@H]2[C@@H](CCN2S(=O)(=O)c2ccccc2C)[C@H](CO)N3C)c1,3.6,x,x,x,x,x,x,x
O=C(Nc1nnc(COc2ccccc2F)s1)Nc1ccccc1F,-8.1,108.2,x,14.6*,5.1,25.2*,3.6,11.8
O=C(Nc1nnc(-c2ccc(F)cc2)s1)Nc1ccccc1F,-11.5,107.1,i,-0.1,1.1,x,x,x
CN(c1ccccc1)S(=O)(=O)c1cccc(NC(=O)CN2CCCc3ccccc32)c1,-17.9,125.5,i,-0.4,-15.6,x,x,x
NS(=O)(=O)c1cccc(NC(=O)CN2CCc3ccccc32)c1,x,x,i,9.2*,-15.4,9.7*,11.1,6.4
Cc1ccc(S(=O)(=O)Nc2ccc3c(c2)C(=O)N([C@H](C)CO)C[C@@H](C)[C@@H](CN(C)S(=O)(=O)c2c(C)noc2C)OCCCC[C@H](C)O3)cc1,0.2,x,x,x,x,x,x,x
Cc1cccc(N2C(=O)CC(N3CCC(c4nc5ccccc5[nH]4)CC3)C2=O)c1 (stereo not given),-27.1,x,i,1.8,1.1,x,x,x
Cc1ccc(N2CC(c3nc4ccccc4[nH]3)CC2=O)c(C)c1 (stereo not given),-18.5,u,i,8.3*,1.8,9.2*,-5.2,9.9

# Complete entries as entered above. Values in the order: Yeast UUG start | Pemphigus Ab inh | Rce1 inh | Tb MetRS inh | Arrestin-AP2 inh | Tb MetRS conf | Jurkat cytotox | Tb MetRS inh FP
# O=S(=O)(c1ccc2nc(SCc3ccc(Cl)cc3)[nH]c2c1)N1CCOCC1 is entered as -3.8 | 101.9 | i | 12.4* | -5.3 | 17.9* | 0.0 | 18.6*
# O=C(CCNC(=O)c1ccc(Br)cc1)OCc1ccccc1Cl is entered as -13.6 | 125.0 | i | 7.0* | -23.3 | 34.3* | -3.6 | 19.4*
# COc1ccccc1-c1nnc(SC(C(=O)c2c[nH]c3ccccc23)c2ccccc2)n1C (stereo not given) is entered as x | 93.4 | i | 13.4* | -4.3 | 35.3* | 1.6 | 11.5
# O=C(NNC(=O)c1cc(-c2ccc(Cl)c(Cl)c2)nc2ccccc12)Nc1ccccc1 is entered as x | u | i | 45.1* | 3.0 | 93.9* | 2.2 | 80.9*
